For experiment [1], the target named is T1, human Folate Receptor 1 (FolR1-Fc) (Homo sapiens, UniProt P15328).
T1 construct: the extracellular domain of the antigen linked to the hinge region of Fc-knob; made in house; host or cells: HEK293 EBNA
Description: SPR avidity to Folate Receptor 1 (bivalent binding). The conditions noted are these: ligand huFolR1, approximated 1:1 Langmuir fit, read-out: Apparent KD. The source says: The immobilization level was about 300-400 RU. […] The dissociation was monitored for 600 seconds.

The chains behind the UniProt entries cited, without tags or fusion partners. A line that says so, or that is headed by a name, gives the form on record, which may keep a tag or linker.
UniProt P15328, with tags, fused parts or gaps: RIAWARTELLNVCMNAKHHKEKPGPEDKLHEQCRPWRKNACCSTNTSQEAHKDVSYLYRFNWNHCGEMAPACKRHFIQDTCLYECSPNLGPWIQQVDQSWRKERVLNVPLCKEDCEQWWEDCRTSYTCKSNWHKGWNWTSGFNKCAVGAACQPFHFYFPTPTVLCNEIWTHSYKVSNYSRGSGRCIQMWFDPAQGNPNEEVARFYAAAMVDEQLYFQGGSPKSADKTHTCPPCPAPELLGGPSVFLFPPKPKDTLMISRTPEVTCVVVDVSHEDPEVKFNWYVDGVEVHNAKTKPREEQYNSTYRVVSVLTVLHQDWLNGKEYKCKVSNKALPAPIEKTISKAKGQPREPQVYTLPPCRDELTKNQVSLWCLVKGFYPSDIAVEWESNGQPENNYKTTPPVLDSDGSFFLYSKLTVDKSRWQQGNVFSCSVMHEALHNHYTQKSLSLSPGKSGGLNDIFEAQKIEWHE

The target of experiment [2] is human Folate Receptor 1 Fc fusion (Homo sapiens, UniProt P15328). The conditions noted are these: monovalent binding (affinity), analyte huFolR1. As for the experimental part: Binding of FolR1 binders as IgG or in the T-cell bispecific format to different recombinant folate receptors (human FolR1, 2 and 3, murine FolR1 and cynomolgus FolR1; all as Fc fusions) was assessed by surface plasmon resonance (SPR). All SPR experiments were performed on a Biacore T200 at 25° C. with HBS-EP as running buffer (0.01 M HEPES pH 7.4, 0.15 M NaCl, 3 mM EDTA, 0.005% Surfactant P20, Biacore, Freiburg/Germany).
For affinity measurement, direct coupling of around 6000-7000 resonance units (RU) of the anti-human Fab specific antibody (Fab capture kit, GE Healthcare) was performed on a CM5 chip at pH 5.0 using the standard amine coupling kit (GE Healthcare). Anti-FolR1 IgGs or T cell bispecifics were captured at 20 nM with a flow rate of 10 μl/min for 20 or 40 sec, the reference flow cell was left without capture. Dilution series (6.17 to 500 nM or 12.35 to 3000 nM) of human or cyno Folate Receptor 1 Fc fusion were passed on all flow cells at 30 μl/min for 120 or 240 sec to record the association phase. The dissociation phase was monitored for 240 s and triggered by switching from the sample solution to HBS-EP. The chip surface was regenerated after every cycle using a double injection of 60 sec 10 mM Glycine-HCl pH 2.1 or pH 1.5. Bulk refractive index differences were corrected for by subtracting the response obtained on the reference flow cell 1. […]

In the case of Farletuzumab [reference compound], the Kd in experiment [1] was 0.73 nM; in experiment [2] it was 55.3 nM.

(Values after patent US10781262B2, “Combination therapy of T cell activating bispecific antigen binding molecules and PD-1 axis binding antagonists” (Hoffmann-La Roche Inc., priority 2014, dated 2020).)
